Source: PMC8453848, “Effect of GLPG1205, a GPR84 Modulator, on CYP2C9, CYP2C19, and CYP1A2 Enzymes: In Vitro and Phase 1 Studies” (Clinical Pharmacology in Drug Development, 2021)

Chains of the proteins cited; added tags and fusions are not shown.
UniProt P05177, whole entry: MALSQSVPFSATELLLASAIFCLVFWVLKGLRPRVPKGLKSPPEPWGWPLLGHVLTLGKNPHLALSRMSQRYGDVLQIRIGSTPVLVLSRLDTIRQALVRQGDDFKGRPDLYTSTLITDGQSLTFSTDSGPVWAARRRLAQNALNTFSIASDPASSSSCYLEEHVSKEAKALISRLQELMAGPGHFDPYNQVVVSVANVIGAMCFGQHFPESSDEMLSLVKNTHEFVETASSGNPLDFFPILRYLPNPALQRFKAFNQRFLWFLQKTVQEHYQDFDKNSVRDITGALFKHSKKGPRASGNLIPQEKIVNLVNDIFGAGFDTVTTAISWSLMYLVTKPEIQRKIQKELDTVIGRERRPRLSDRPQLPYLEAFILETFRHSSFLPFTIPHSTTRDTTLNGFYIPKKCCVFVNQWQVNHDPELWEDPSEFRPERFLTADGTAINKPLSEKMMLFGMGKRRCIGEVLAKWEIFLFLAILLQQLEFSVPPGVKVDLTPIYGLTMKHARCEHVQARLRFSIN

Target: CYP1A2 (Homo sapiens, UniProt P05177)
Conditions: GLPG1205 relative to placebo (ANOVA)

SMILES: Cn1c(=O)c2c(ncn2C)n(C)c1=O [Caffeine, caffeine]
- AUC0‐inf, PE (90% CI) of least‐squares geometric means ratio: 0.93 (0.81‐1.07)
- AUC0‐t, PE (90% CI) of least‐squares geometric means ratio: 0.96 (0.86‐1.06)
- Cmax, PE (90% CI) of least‐squares geometric means ratio: 0.99 (0.88‐1.11)
- t1/2, λz, PE (90% CI) of least‐squares geometric means ratio: 0.92 (0.83‐1.01)
